Measured values as given in US11459499B2, “Amidoamine-based gemini surfactant containing ethoxylate units and a method for oil recovery” (King Fahd University of Petroleum and Minerals, priority 2018, dated 2022).
Where two headings read alike, the source gives them in different places.

Experiments:
[1] = 10 wt % solution, table title says room temperature; for solubility in DW: deionized water; for solubility in FW: formation water (214 g/L salts); for solubility in SW: sea water (57.7 g/L salts)
[2] = due to evaporation of organic solvents and water; 20° C./min, nitrogen
[3] = AM-AMPS copolymer, 80° C.
[4] = 30° C.

Substance	solubility in DW [1]	solubility in FW [1]	solubility in SW [1]	initial loss in weight (TGA) [2]	foam height in SW versus DW (0.1 wt % surfactant)	initial foam height (surfactant concentration 0.1%, ambient temperature) [mm]	influence of surfactant concentration on polymer viscosity ([3]; high shear rate)	storage modulus and polymer viscosity upon increasing concentration of the surfactant ([3]; low shear rate)	change in cmc upon enhancing salinity ([4]; DW versus SW)	Amin ([4]; DW) [nm^2]	cmc ([4]; DW) [mol/L]	Γmax × 10^6 ([4]; DW) [mol/m^2]	γcmc ([4]; DW) [mN/m]	πcmc ([4]; DW) [mN/m]	Amin ([4]; SW) [nm^2]	cmc ([4]; SW) [mol/L]	Γmax × 10^6 ([4]; SW) [mol/m^2]	γcmc ([4]; SW) [mN/m]	πcmc ([4]; SW) [mN/m]
cationic poly(ethylene oxide) gemini surfactant [12-E1-12]	Transparent	Severe precipitation	Precipitation																
cationic poly(ethylene oxide) gemini surfactant [12-E2-12]	Transparent	Transparent	Transparent	about 25%	greater in SW than in DW	90	insignificant	reduced	decrease	2.83	5.02e-05	0.58	38.66	33.34	3.12	3.91e-05	0.53	36.12	35.08
